Experiment [1] addresses Mu-type opioid receptor (Homo sapiens, UniProt P35372). The experiment can be described thus: Agonist activity at MOR (unknown origin) by [35S]GTPgamma binding assay relative to DAMGO.
For experiment [2], the target named is Delta-type opioid receptor (Rattus norvegicus) (UniProt P33533). Description: Antagonist activity at DOR in rat C6 cells assessed as inhibition of SNC80-induced [35S]GTPgamma binding.
The subject of experiment [3] is Mus musculus. Description: Antinociceptive activity in Swiss-Webster mouse assessed as increase in response latency 50 mg/kg, sc measured 30 mins post dose by hot plate test. (Hot-plate and tail-flick tests time the reaction to a heat stimulus.)
For experiment [4], the system named is Mus musculus. The experiment can be described thus: Antinociceptive activity in Swiss-Webster mouse assessed as increase in response latency 50 mg/kg, sc administered 30 mins prior to test measured up to 70 mins post dose by hot plate test.
The subject of experiment [5] is Mus musculus. Description: Antinociceptive activity in Swiss-Webster mouse assessed as increase in tail-flick latency at 50 mg/kg, sc administered 30 mins prior to test measured at 70 mins post dose by tail-flick test.
For experiment [6], the system named is Mus musculus. Description: Antinociceptive activity in Swiss-Webster mouse assessed as increase in tail-flick latency at 60 mg/kg, sc administered 30 mins prior to test measured at 30 mins post dose by tail-flick test.
The test system of experiment [7] is Mus musculus. Description: Antinociceptive activity in Swiss-Webster mouse assessed as increase in tail-flick latency at 60 mg/kg, sc administered 30 mins prior to test measured up to 70 mins post dose by tail-flick test.
Experiment [8] relates to Mus musculus. Description: Antinociceptive activity in Swiss-Webster mouse assessed as maximum time required for maximum possible effect at 20 to 60 mg/kg, sc after 30 mins measured every 20 mins for 90 mins by hot plate test.

Chains of the proteins cited; added tags and fusions are not shown.
UniProt P35372, whole entry, looked up: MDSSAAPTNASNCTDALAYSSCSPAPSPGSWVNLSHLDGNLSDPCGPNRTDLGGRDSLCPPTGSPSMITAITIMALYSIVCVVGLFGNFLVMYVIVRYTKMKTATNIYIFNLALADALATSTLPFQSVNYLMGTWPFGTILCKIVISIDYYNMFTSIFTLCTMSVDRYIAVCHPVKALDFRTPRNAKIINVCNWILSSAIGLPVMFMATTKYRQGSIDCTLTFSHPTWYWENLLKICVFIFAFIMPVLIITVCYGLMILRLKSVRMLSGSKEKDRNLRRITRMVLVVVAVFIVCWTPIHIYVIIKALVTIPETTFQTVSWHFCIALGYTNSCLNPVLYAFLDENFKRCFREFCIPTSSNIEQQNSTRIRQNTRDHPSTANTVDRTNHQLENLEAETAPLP
UniProt P33533, whole entry, looked up: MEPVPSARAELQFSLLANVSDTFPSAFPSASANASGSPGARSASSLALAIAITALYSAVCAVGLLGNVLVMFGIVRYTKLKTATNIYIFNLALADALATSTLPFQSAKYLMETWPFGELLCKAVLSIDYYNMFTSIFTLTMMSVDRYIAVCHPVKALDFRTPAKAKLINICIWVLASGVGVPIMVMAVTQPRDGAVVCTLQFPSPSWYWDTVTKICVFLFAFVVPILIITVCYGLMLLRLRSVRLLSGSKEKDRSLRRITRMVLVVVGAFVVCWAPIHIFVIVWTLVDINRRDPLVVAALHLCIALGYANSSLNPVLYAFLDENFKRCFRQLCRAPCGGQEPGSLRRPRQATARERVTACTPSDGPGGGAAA

The structures appear in SMILES notation. Calls of active or inactive are those of the source. The rule behind the calls is not given here. Some results are limits rather than exact numbers.

Broadly, the Emax is the greatest response seen or fitted, relative to the assay's reference. Turning to `CN1CC[C@]23c4c5ccc(O)c4O[C@H]2C(=O)/C(=C/c2ccccc2)C[C@@]3(O)[C@H]1C5`, in experiment [1], the Emax was 39%. In experiment [2], the Ke came out at 138 nM. The result in experiment [3], in experiment [4], in experiment [5], in experiment [6] and in experiment [7] was Active. The Tmax in experiment [8] came to 50 min.

Compound `O=C1/C(=C/c2ccccc2)C[C@@]2(O)[C@H]3Cc4ccc(O)c5c4[C@@]2(CCN3CCc2ccccc2)[C@H]1O5` had a maximal effect (Emax) in experiment [1] of 52%.

In the case of `O=C1/C(=C/c2ccccc2)C[C@@]2(O)[C@H]3Cc4ccc(O)c5c4[C@@]2(CCN3CCCc2ccccc2)[C@H]1O5`, the Emax in experiment [1] was less than 10%.
